Earlier results, collected in patent publication US20260169011A1, “METHODS AND COMPOSITIONS FOR PROVIDING CUSTOMIZED NUTRITIONAL SUPPLEMENTS” (Vibrant Holdings LLC, priority 2023, published 2026).
Where two headings read alike, the source gives them in different places.

Details: cited from earlier work

Measured: UTL

Vitamin E
1,100 IU/day: Table 18, person one | Table 19, person two | upper tolerable limit
